Laboratory results published in ChEMBL document CHEMBL1147425, “Structure-activity relationships of non-imidazole H(3) receptor ligands. Part 3: 5-Substituted 3-phenyl-1,2,4-oxadiazoles as potent antagonists” (Bioorg Med Chem Lett, 2004).

Amino acid sequences for entries named in this document (tags omitted). A change or cut given only in a name is not applied to a line headed by its entry.
UniProt Q9QYN8: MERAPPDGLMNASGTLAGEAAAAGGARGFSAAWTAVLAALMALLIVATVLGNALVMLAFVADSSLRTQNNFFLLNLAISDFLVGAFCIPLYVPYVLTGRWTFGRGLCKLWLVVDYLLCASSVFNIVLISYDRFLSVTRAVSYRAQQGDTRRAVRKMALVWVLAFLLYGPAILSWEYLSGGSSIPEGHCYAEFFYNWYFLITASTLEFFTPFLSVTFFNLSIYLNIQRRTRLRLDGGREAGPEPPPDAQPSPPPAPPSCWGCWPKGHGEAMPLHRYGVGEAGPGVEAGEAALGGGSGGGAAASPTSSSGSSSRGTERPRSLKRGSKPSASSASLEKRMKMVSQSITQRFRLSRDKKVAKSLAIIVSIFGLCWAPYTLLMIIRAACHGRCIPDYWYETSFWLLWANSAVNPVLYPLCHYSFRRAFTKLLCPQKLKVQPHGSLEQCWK

Target: Histamine H3 receptor (Rattus norvegicus, UniProt Q9QYN8)
Assay: Binding affinity for rat histamine H3 receptor on rat cortical cells

Ki: 4.1 nM
SMILES: CCc1nc(-c2ccc(OCCCN3CCCN(C(=O)[C@@H](C)NC(=O)c4ccco4)CC3)cc2F)no1
